We go through 63 molecules from PubChem BioAssay AID588473 (Sanford-Burnham Center for Chemical Genomics, 2011).

This is a selection; strong and weak results do not stand in their true shares. Activity calls are given as the source filed them.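 How the source made its calls: active means activation of at least 50%, plus an integration ratio under a set limit after plate pattern correction; inactive means the rest.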

This assay deals with CRF-binding protein / CRF receptor 2 complex (human). Description: activators of CRF-R2 with CRF-BP – cell-based, HEK293, calcium dye fluorescence, uHTS, primary screen (AID 588473).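 Further: plate controls were neutral control wells without compound for no effect and CRF at EC100 for full effect.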 Conditions: calcium dye fluorescence (FLIPR), at 13.2 µM, hits give high values, percent of saturating CRF peptide response.
As for `CCC(=O)N1C2C3N(C(=O)CC)C1C1N(C(=O)CC)C(C(N1C(=O)CC)N3C(=O)CC)N2C(=O)CC`, the activation is inactive: -0.91%. Turning to `O=C(OC1CN2CCC1CC2)c1ccccc1` (stereo not drawn), the activation was inactive: 1.08%. The figure for `CC(=O)NC(SC(=S)N(CC(C)C)CC(C)C)C(Cl)(Cl)Cl` (stereo not drawn) is inactive: -1.76%. The same measure for `Cc1ccc(OP(=O)(Nc2ccccn2)Oc2ccc(C)cc2)cc1`: inactive: -0.85%; for `COC(=O)c1cc2c(s1)N=C(c1ccccc1)N(C)P2(=O)N1CCOCC1` (stereo not drawn): inactive: 0.2%. With `O=c1c2cc([N+](=O)[O-])ccc2[nH]c2c([N+](=O)[O-])cc([N+](=O)[O-])cc12`, the activation was active: 128%.

In the case of `CN(C)C(=O)Oc1noc2ccccc12`, the activation was inactive: -1.43%. In the case of `CC(NC(=O)COC(=O)C(O)(c1ccccc1)c1ccccc1)c1ccccc1` (stereo not drawn), the activation was inactive: -5.35%. `Cc1ccccc1OP(=O)(Nc1ccccn1)Oc1ccccc1C`: the activation was inactive: -2.36%.

As to `Cc1ccc(NP(=O)(Oc2cccc(C)c2)Oc2cccc(C)c2)nc1`, the activation is inactive: -0.85%. The figure for `c1ccc(-c2nn[nH]n2)c(-c2nn[nH]n2)c1` is inactive: -0.83%; for `CCNC(=S)/N=C(\N)N[N+](=O)[O-]` it is inactive: -2.63%. The same measure for `O=C(NC1CCS(=O)(=O)C1)NP(=S)(Oc1ccccc1)Oc1ccccc1` (stereo not drawn): inactive: -4.93%; for `O=P1(N(CCCl)CCCl)OCCC2CCCCN21` (stereo not drawn): inactive: 5.26%. `C[C@H]1OP(=O)(Oc2ccccc2)C[C@@H]2O[C@@H]21` (stereo partly drawn): the activation is inactive: 0.35%.

Consider `C[C@@H]1C=CCP(=O)(Oc2ccccc2)O1` (stereo partly drawn), for which the activation was inactive: -1.21%. The same measure for `Cc1ccccc1CN(C)C(=O)COC(=O)C(O)(c1ccccc1)c1ccccc1`: inactive: -0.72%.

For the molecule `COC(=O)C1(C)COP(=O)(NCc2ccccc2)OC1` (stereo not drawn), the activation is inactive: 1.1%. The same measure for `CC(=O)c1ccc(N2CC2c2ccncc2)cc1` (stereo not drawn): inactive: 0.24%; for `N#C/C(=C\c1ccc(N(CCBr)CCBr)cc1)C(N)=O`: inactive: -2.41%; for `CC(=O)Nc1ccc(Oc2c([N+](=O)[O-])cc([N+](=O)[O-])cc2[N+](=O)[O-])cc1`: inactive: -3.02%. The figure for `CC(=O)Nc1ccc([As](=O)(O)O)c(O)c1` is inactive: -0.34%. Take `CCOc1ccc(C2=NCC(CBr)S2)cc1` (stereo not drawn): the activation is inactive: 0.22%.

For the molecule `O=P1(Nc2nc3ccc(Cl)cc3s2)COc2ccccc2O1` (stereo not drawn), the activation is inactive: -1.19%. Take `CC(C)(C)C(=O)NC(Sc1ccccc1)C(Cl)(Cl)Cl` (stereo not drawn): the activation is inactive: -0.1%. The same measure for `CCc1cc(O)c([N+](=O)[O-])c(C)c1[N+](=O)[O-]`: inactive: 6.96%; for `CC(C)C(=O)NC(Sc1ccccc1)C(Cl)(Cl)Cl` (stereo not drawn): inactive: 0.66%; for `O=P(Nc1nccs1)(c1ccccc1)c1ccccc1`: inactive: 0.71%. For `c1nnnn1CCn1cnnn1`, the activation was inactive: -1.81%. The figure for `O=[As](O)(c1ccccc1)c1ccc(O)cc1` is inactive: -1.44%; for `O=[N+]([O-])c1ccc(O)c(/C=N/Nc2ccc([N+](=O)[O-])cc2[N+](=O)[O-])c1` it is inactive: 39.7%; for `CC(=O)NC(SC(=S)N(C)C)C(Cl)(Cl)Cl` (stereo not drawn) it is inactive: 2.24%.

Regarding `O=[N+]([O-])c1ncn(CCn2cnc([N+](=O)[O-])n2)n1`, the activation was inactive: -1.17%.

Turning to `O=C(OC1CN2CCC1CC2)c1cccc(Cl)c1` (stereo not drawn), the activation was inactive: -0.6%. The same measure for `C(Cc1nn[nH]n1)Cc1nn[nH]n1`: inactive: -3.04%.

Consider `Nc1ccc([As](=O)(O)c2ccc([N+](=O)[O-])cc2)cc1`, for which the activation is inactive: 0.4%. The figure for `O=P(Nc1ccccn1)(c1ccc(Br)cc1)c1ccc(Br)cc1` is inactive: -1.85%; for `CN(C)C1(CNC(=O)c2ccc(Cl)c(S(N)(=O)=O)c2)CCCCC1` it is inactive: 0.34%; for `COc1ccc(N)c([N+](=O)[O-])c1[N+](=O)[O-]` it is inactive: -1.89%. The same measure for `C[C@H]1OP(=O)(Oc2ccccc2)[C@H](O)[C@H](O)[C@H]1N=[N+]=[N-]` (stereo partly drawn): inactive: -0.13%; for `O=P(Nc1nc2ccccc2s1)(c1ccccc1)c1ccccc1`: inactive: -0.24%; for `O=[N+]([O-])c1ncn(CCn2ncnc2[N+](=O)[O-])n1`: inactive: 1.53%. For `CC(C)(C)C(=O)NC(Sc1ccncn1)C(Cl)(Cl)Cl` (stereo not drawn), the activation is inactive: 0.82%. In the case of `O=C(O)CNc1ccc([As](=O)(O)O)cc1`, the activation was inactive: -2.6%. The same measure for `COC(=O)C1(C)COP(=O)(Nc2ccccc2)OC1` (stereo not drawn): inactive: 0.94%; for `O=[N+]([O-])c1cccc(NC2=NCC(CBr)S2)c1` (stereo not drawn): inactive: -1.98%. The figure for `O=P1(N(CCCl)CCCl)OCCCS1` (stereo not drawn) is inactive: -2.05%; for `O=C(Nc1cc([As](=O)(O)O)ccc1O)c1ccccc1` it is inactive: -0.71%; for `CCN(/C(=N/P(=O)(N1CCOCC1)N1CCOCC1)N1CCOCC1)c1ccc(OC)cc1` it is inactive: -1.77%. Consider `C[N+]1=C2C=CC=CC=C2SC12C([N+](=O)[O-])=CC([N+](=O)[O-])=C[C-]2[N+](=O)[O-]` (stereo not drawn), for which the activation was inactive: -4.4%.

Turning to `Nc1ccc([As](=O)(O)c2ccc(N)cc2)cc1`, the activation was inactive: -1.86%. With `CC1CCN(C(=O)Oc2c(Cl)cc(Cl)c3cccnc23)CC1`, the activation is inactive: -0.67%.

`c1cc(-c2nn[nH]n2)ccc1-c1nn[nH]n1`: the activation is inactive: 2.28%. The same measure for `CN(C)C(=O)OCCc1n(C)cc[n+]1C`: inactive: -1.23%. The same measure for `CC(C)c1nc(Nc2ccccc2)n(P(=O)(N(C)C)N(C)C)n1`: inactive: 34.2%; for `CC(C)=N/N=C(\N)N[N+](=O)[O-]`: inactive: -1.53%. The same measure for `COc1ccc(C2=NCC(CBr)S2)cc1` (stereo not drawn): inactive: -4.04%. For `CCc1nc2c(n1)c1c(non1O)c1c2no[n+]1[O-]`, the activation is inactive: 8.26%. The figure for `O=[N+]([O-])c1cc([N+](=O)[O-])c(CCNc2ccccc2)c([N+](=O)[O-])c1` is inactive: -0.24%; for `Cc1ccc(NP(=O)(Oc2ccccc2)Oc2ccccc2)nc1` it is inactive: -0.81%; for `O=[N+]([O-])c1cccc2n[nH]nc12` it is inactive: -1.76%. Regarding `CC(=O)N1C2C3N(C(C)=O)C1C1N(C(C)=O)C(C(N1C(C)=O)N3C(C)=O)N2C(C)=O`, the activation was inactive: -0.08%.

On to `O=C(NC(Sc1ccncn1)C(Cl)(Cl)Cl)c1ccccc1` (stereo not drawn), for which the activation was inactive: -0.48%.
